Earlier results in paper PMC5775816 (Journal of medicinal chemistry, 2016).

Molecular target: T1, PAR1 (Homo sapiens, UniProt P25116)
T1 sequence (P25116 22-425): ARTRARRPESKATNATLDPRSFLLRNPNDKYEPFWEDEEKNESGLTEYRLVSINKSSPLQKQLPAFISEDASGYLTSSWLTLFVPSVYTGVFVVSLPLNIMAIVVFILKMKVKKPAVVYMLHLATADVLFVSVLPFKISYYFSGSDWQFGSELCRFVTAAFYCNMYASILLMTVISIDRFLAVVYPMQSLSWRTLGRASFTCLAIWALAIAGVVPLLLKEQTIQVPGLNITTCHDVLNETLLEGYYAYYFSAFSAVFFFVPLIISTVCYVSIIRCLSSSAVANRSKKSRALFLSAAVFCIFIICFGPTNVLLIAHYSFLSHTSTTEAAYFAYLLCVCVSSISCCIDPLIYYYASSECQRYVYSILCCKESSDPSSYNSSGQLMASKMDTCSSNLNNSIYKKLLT
Settings: read-out: EC50 for PAR1; thrombin as agonist; background statement; cited from earlier work

In the case of Thrombin, the EC50 is listed as about 0.2 nM.
